Laboratory results reported in ChEMBL document CHEMBL1908105, “UDP-glucuronosyltransferases and clinical drug-drug interactions” (Pharmacol Ther, 2005).

Chains of the proteins cited; added tags and fusions are not shown. Residues count along the entry.
UniProt P35503, 29-534 limits assumed: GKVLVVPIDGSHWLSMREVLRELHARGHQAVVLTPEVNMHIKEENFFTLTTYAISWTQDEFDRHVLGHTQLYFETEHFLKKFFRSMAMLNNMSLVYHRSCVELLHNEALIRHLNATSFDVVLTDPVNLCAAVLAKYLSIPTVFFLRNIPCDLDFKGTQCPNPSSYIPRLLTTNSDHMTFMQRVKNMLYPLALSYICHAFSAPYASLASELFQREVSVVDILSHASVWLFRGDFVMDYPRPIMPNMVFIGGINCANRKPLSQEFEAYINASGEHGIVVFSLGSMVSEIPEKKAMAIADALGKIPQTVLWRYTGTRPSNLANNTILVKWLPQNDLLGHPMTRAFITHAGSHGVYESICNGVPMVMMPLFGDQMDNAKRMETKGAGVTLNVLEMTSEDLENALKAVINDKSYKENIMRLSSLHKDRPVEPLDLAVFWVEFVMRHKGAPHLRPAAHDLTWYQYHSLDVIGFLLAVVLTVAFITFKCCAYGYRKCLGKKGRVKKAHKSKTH

Target: UDP-glucuronosyltransferase 1A3 (Homo sapiens, UniProt P35503)
Test: Drug glucuronidation reaction catalyzed by human recombinant UGT1A3

`CO[C@]12CC[C@@]3(C[C@@H]1[C@](C)(O)C(C)(C)C)[C@H]1Cc4ccc(O)c5c4[C@@]3(CCN1)[C@H]2O5` showed a Km of 19 µM and a Vmax (pmol/min/mg protein) of 129.
